Results as given in US10358436B2, “Kinase inhibitors and method of treating cancer” (University Health Network, priority 2010, dated 2019).

Sequences of proteins named here, by UniProt entry; tags and fusion partners are left off.
UniProt Q96GD4, whole entry: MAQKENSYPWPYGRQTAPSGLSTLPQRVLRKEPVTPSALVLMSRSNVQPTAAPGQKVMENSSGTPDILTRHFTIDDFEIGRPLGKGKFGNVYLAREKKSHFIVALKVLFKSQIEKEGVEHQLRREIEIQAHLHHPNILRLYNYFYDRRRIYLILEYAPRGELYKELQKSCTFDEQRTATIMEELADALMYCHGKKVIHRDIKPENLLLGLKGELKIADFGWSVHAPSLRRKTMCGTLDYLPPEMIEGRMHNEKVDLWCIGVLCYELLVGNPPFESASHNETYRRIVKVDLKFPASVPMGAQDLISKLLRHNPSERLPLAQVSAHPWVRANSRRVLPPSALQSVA

Molecular target: Aurora B (Homo sapiens (Human), UniProt Q96GD4)
Assay: Aurora B inhibition assay (Z-Lyte)
Format: biochemical
Details: read-out: Aurora B IC50 Ranges

Compound	IC50
COc1ccc2c(c1)[C@]1(C[C@H]1c1ccc3c(-c4ccc(N5CCN(C(C)C)CC5)cc4)n[nH]c3c1)C(=O)N2 (relative stereo) [Example A96, (1R*,2S*)-2-(3-(4-(4-isopropylpiperazin-1-yl)phenyl)-1H-indazol-6-yl)-5′-methoxyspiro[cyclopropane-1,3′-indolin]-2′-one]	< 100 nM
Cc1ccc2c(c1)[C@]1(C[C@H]1c1ccc3c(/C=C/c4ccc(CN(C)C)cc4)n[nH]c3c1)C(=O)N2 (relative stereo) [Example A169, (1R*,2S*)-(E)-2-(3-(4-((dimethylamino)methyl)styryl)-1H-indazol-6-yl)-5′-methylspiro[cyclopropane-1,3′-indolin]-2′-one 2,2,2-trifluoroacetate]	< 100 nM
